Assay results: article PMC12670387, “A Fragment-Based Electrophile-First Approach to Target Histidine with Aryl-Fluorosulfates: Application to hMcl‑1” (2025)

Sequences of proteins named here, by UniProt entry; tags and fusion partners are left off. Residues count along the entry.
UniProt Q07820, 172-323 limits assumed: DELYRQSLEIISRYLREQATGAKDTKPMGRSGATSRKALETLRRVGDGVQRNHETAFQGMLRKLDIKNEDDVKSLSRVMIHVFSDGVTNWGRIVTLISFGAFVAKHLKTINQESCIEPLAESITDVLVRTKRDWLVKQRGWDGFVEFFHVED

Target: hMcl-1 (Homo sapiens, UniProt Q07820)
Experiment: DELFIA displacement of biotinylated BH3 peptide ([…] h); intact MS […] covalent adduct; thermal shift ~[…] °C

O=C(Nc1cncc(OS(=O)(=O)F)c1)C1CCc2ccc(Cl)cc21 (stereo not shown)
IC50: 2500 nM
